For the assay, the target named is Cyclin-dependent kinase 4/cyclin D1 (Homo sapiens, UniProt P11802). Kind of assay: Inhibition of Cyclin-dependent kinase 4-cyclin D1. Format: protein-complex assay.

Chains of the proteins cited; added tags and fusions are not shown. Lines headed by an entry give the natural chain unless they say otherwise; changes in a name come on top.
UniProt P11802: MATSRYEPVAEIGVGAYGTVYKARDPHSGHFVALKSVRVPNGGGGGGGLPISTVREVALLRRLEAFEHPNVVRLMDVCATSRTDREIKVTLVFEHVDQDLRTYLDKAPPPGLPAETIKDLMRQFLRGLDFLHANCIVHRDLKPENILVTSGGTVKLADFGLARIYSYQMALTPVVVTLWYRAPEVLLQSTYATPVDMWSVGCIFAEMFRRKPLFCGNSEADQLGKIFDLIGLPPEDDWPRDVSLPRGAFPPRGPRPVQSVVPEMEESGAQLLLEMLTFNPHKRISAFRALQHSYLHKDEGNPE

pIC50: −log10 of the molar value.

Usually pIC50 stands for −log10 of the IC50, conventionally taken in molar units. Low readings indicate a high IC50, high ones a low IC50. As to `Cn1cnc2c(NCc3ccccc3)nc(NCCO)nc21` [OLOMOUCINE], the pIC50 was 3.00.

Source of the values: ChEMBL document CHEMBL1133502, “Thio- and oxoflavopiridols, cyclin-dependent kinase 1-selective inhibitors: synthesis and biological effects” (J Med Chem, 2000).
